The structures appear in SMILES notation. This is a selection; strong and weak results do not stand in their true shares. Results filed as inconclusive are left out. The source made the active and inactive calls. Calls come from the whole dose curve; as a rule, active = well fitted inhibition curve with a large enough effect; inconclusive = small, poorly fitted or top-dose-only effect; inactive = flat fitted curve, though single readings scatter.

By UniProt entry, the sequences of proteins in these tests, tags left out. Where a name states a change or a piece, a line headed by the entry shows the natural chain unless it says otherwise.
UniProt Q9HAZ1: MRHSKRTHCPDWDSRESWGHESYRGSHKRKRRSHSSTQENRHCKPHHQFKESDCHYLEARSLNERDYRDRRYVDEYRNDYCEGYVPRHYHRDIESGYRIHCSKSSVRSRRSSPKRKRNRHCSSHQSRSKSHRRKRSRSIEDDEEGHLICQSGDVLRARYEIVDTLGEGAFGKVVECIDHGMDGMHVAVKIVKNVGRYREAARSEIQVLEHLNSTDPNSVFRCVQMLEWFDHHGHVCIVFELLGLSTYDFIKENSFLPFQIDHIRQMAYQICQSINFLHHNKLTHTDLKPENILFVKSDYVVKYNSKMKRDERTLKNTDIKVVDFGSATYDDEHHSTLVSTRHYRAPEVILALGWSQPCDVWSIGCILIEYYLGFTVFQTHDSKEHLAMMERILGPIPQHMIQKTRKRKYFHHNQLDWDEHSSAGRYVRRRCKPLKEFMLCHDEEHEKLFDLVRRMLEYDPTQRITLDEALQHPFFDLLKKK

In this assay the target is Dual specificity protein kinase CLK4 (Homo sapiens) (UniProt Q9HAZ1). Put plainly: Reaction Biology data for inhibitors of CLK4: Probe SAR. As to conditions: Reaction Biology CLK4 kinase assay, 10 uM ATP. From the text:
Alternative splicing of pre-mRNAs plays a major role in the regulation of eukaryotic gene expression. Alternative splicing is now thought to be one of the primary reasons for the complexity of higher organisms leading to an average of three protein isoforms per gene. Aberrant splicing can lead to a number of diseases and is known to play a role in rare genetic diseases such as progeria syndrome. Hutchinson-Gilford Progeria Syndrome (HGPS) is a pediatric premature aging disease caused by a spontaneous mutation in the lamin A/C (LMNA) gene due to a single point mutation in the lamin A gene effecting 1 in 4 million people. To identify both specific splicing modulators of the lamin A gene as well as general splicing modulators, a cell-based HTS assay was developed using a minigene reporter system (AIDs, 1459 & 1487). […] This AID summarizes the characterization of lead compounds in Clk4. NIH Molecular Libraries Probe Production Centers Network [MLPCN] NIH Chemical Genomics Center [NCGC] MLPCN Grant: MH084827 Assay Submitter (PI): Tom Misteli
Compound IC50s were determined at Reaction Biology (http://www.reactionbiology.com) with ten concentration points starting at 10 uM in the assay using a 3-fold dilution series. The control compound staurosporine was also tested in the 10-dose IC50 mode with the same 3-fold serial dilution, again starting at 10 uM. […]
Take `c1cncc(CNc2ncncc2-c2ccc3c(c2)OCO3)c1`: the Potency is active: 7.54 µM.
